In paper PMC7915666, “Antitrypanosomal and Antileishmanial Activity of Chalcones and Flavanones from Polygonum salicifolium” (Pathogens, 2021) one finds EC50 data, which are given here for one molecule.

The subject of this data set is HFF cells. Nature of the data set: Drug toxicity assay in human foreskin fibroblast (HFF) cells, resazurin. The class given is cell-based. As to conditions: read-out: HFF EC50; human foreskin fibroblasts; highest concentration tested 100 µg/mL; mean ± SEM, n>=3.

As to `O=[As]c1ccccc1` (stereo not shown), the EC50 (commonly the midpoint of the concentration-response curve) is 1.31 µM.
